From patent US11203587B2, “Thyroid hormone receptor beta agonist compounds” (Terns, Inc., priority 2018, dated 2021)

Chains of the proteins cited; added tags and fusions are not shown. Residues count along the entry.
UniProt P10828, 217-461 limits assumed: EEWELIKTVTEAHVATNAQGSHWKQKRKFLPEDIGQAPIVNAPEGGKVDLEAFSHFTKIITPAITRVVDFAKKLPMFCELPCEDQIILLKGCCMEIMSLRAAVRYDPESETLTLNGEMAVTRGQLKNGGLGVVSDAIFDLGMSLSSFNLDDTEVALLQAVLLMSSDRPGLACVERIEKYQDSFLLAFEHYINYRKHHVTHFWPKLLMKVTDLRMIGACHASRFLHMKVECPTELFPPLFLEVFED
UniProt P10827, 163-410 isoform 2 limits assumed: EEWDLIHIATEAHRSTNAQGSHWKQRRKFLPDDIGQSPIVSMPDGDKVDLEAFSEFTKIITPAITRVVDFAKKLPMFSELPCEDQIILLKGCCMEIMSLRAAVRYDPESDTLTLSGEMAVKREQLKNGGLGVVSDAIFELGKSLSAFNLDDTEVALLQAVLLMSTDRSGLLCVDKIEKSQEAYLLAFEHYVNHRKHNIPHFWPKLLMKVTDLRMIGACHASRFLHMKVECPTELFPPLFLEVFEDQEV

Assays:
[1] = target: THR beta-LBD (Homo sapiens, UniProt P10828); assay: LanthaScreen TR-FRET Thyroid Receptor beta Coactivator Assay; assay type: biochemical; conditions: for THRβ-Selectivity: THR beta over THR alpha, derived from T3-selectivity normalized data; for EC50: read-out: EC50 THRβ-FRET, TR-FRET coactivator assay, 2 hours incubation at room temperature, run in duplicate multiple times, average data
[2] = target: THR alpha-LBD (Homo sapiens, UniProt P10827); assay: LanthaScreen TR-FRET Thyroid Receptor alpha Coactivator Assay; conditions: read-out: EC50 THRα-FRET, 2 hours incubation at room temperature, run in duplicate multiple times, average data

THRβ-Selectivity [1]	EC50 [1] [nM]	EC50 [2] [µM]	Structure (SMILES)
22.7	524	3.32	Cn1nc(-c2cc(Cl)c(Oc3cc(C4CC4)c(=O)[nH]n3)c(Cl)c2)c(=O)[nH]c1=O
10.9	1420	4.26	Cc1cc(-c2nn(C)c(=O)[nH]c2=O)cc(C)c1Cc1cc(C(C)C)c(=O)[nH]n1
